# Nrf2 activator: activators of Nrf2 (ARE) signaling. AREc32 ARE-luciferase reporter (MCF7-derived line), luminescence, 24 h. Potency, µM (top dose mostly 46.1 µM), most hits filed as activators. 0.31% of 410,000 active; note: nearly all actives have a fitted effect of over 65% in size
#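 AREc32 cells carrying an ARE-driven firefly luciferase, 1000 cells/well in OPTI-MEM with 5% FBS, dosed after overnight attachment and incubated 24 hr at 37 deg C. Steady-Glo luminescence read after 30 min at RT.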
# Nrf2 inh: blocks Nrf2 signaling. A549 ARE-Fluc reporter, luciferase luminescence, 18-24 h. Potency, µM (titrated, usually from 46 µM), usual class: inhibitors. 2.1% of 360,000 active. AID 504444; note: nearly all actives have a fitted effect of over 60% in size
#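 Cells were seeded and rested 2 h, then exposed to compounds for 18-24 h. CellTiter-Fluor was read first as a viability measure. BugLite was added 15 min before the final luminescent read of ARE-luciferase activity in A549 cells.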
# miR-21 reporter: raises the signal of a miR-21 reporter; Potency, µM (doses to about 38.3 µM); HeLa miR-21 FLuc reporter, luciferase, 48 h; AID 2288; 340,000 tested, under 10 active; active = well fitted rising curve with a large enough effect; inconclusive = small, poorly fitted or top-dose-only effect; inactive = no such curve, though single readings can be large or run the other way;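 further: miR-21 action dims this reporter so a rising signal means less miR-21 action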
#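 HeLa cells stably expressing CMV-driven firefly luciferase with a downstream miR-21 binding sequence, endogenously expressing miR-21, were treated with titrations (up to about 40uM final) for 48 hours at 37 degree Celsius. Luciferase luminescence was read after lysis.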
# A549 tox-1: A549 cytotoxicity, counter-screen for Nrf2 inhibitors; A549 ARE-Fluc cells, CellTiter-Fluor viability, 18-24 h; Potency, µM (top dose mostly 46 µM), usual class: inhibitors; 0.16% of 390,000 active; AID 504648
#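 A549 ARE_Fluc cells in 5% FBS OPTI-MEM were exposed to compounds in concentration-response for 18-24 h at 37 deg C. Viability was read by CellTiter-Fluor fluorescence (Ex 405/Em 525) after 30 min, before the luciferase read.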
# ClpP mod: qHTS Assay for Activators of ClpP. ATP-dependent Clp protease proteolytic subunit (Bacillus subtilis (strain 168)), P80244. purified B. subtilis ClpP, FRET peptide cleavage, 20 min. Potency, µM (top dose mostly 57.5 µM). 1.9% of 340,000 active; active = well fitted falling curve with a large enough effect; inconclusive = small, poorly fitted or top-dose-only effect; inactive = no such curve, though single readings can be large or run the other way; note: the source files actives as falling curves though it sought activators and does not explain the sign; nearly all actives have a fitted effect of over 65% in size
#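 Purified B. subtilis ClpP, 10 microg/mL final in Tris/HCl pH8 with KCl, BSA, glycerol and Tween-20, cleaved an Abz/nitrotyrosine-quenched decapeptide. Fluorescence (ex 320, em 430) was read at 0 and 20 min at room temperature. Delta was normalized to 5.8 microM ADEP and DMSO/no-enzyme controls.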
# IL-2 act: IL-2 activation | IL-2 activation reporter assay, cell-based qHTS; stimulated with anti-CD3/CD4/CD28 beads; in transgenic mouse T cells | activation, % (series mostly up to about 46 µM) | 0.065% of 360,000 active | AID 652025; in the data active = activation above about 50%; inconclusive = mostly about 30% to 49%
#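 EGFP and DsRed fluorescence is measured by plate cytometry in unstimulated transgenic mouse T cells exposed to compound for 60 minutes, then stimulated 18 hours at 37 degrees C with anti-CD3/anti-CD4 beads plus anti-CD28.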
# FLuc enzyme inh: counter-screen for Nrf2 inhibitors: firefly luciferase enzyme inhibition. shares compounds with Nrf2 inh. purified firefly luciferase, luminescence inhibition. Potency, µM (highest dose often 57.5 µM), most hits filed as inhibitors. 4% of 1,400 active. AID 720522; note: nearly all actives have a fitted effect of over 65% in size
# A549 tox-2: toxic to A549 ARE-Fluc cells in Nrf2 counterscreen. shares compounds with Nrf2 inh. A549 ARE-Fluc cells, cytotoxicity counterscreen. Potency, µM (doses to about 46.1 µM), hits mostly inhibitors. 2% of 1,400 active. AID 720523;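 note: cells exposed to compounds for 18 to 24 hours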
# Nrf2 ARE inh: Nrf2 inhibition confirmed, A549 ARE-luciferase | A549 ARE-firefly luciferase reporter, luminescence | 74% of 1,400 active | Potency, µM (titrated, usually from 46.1 µM), usual class: inhibitors | shares compounds with Nrf2 inh; note: nearly all actives have a fitted effect of over 65% in size
# Hits are given with their value; i = inactive; ? = inconclusive; nt = no result given. Shown are actives, neighbours in structure and some others; about 3.7% of the full set was active somewhere. Unless noted, calls come from the whole dose curve; as a rule, active = well fitted curve in the direction sought with a large enough effect; inconclusive = small, poorly fitted or top-dose-only effect, or another doubt; inactive = no such curve, though single readings can be large; an effect the other way counts as inactive or inconclusive.
SMILES,Nrf2 activator,Nrf2 inh,miR-21 reporter,A549 tox-1,ClpP mod,IL-2 act,FLuc enzyme inh,A549 tox-2,Nrf2 ARE inh
O=C(Cc1ccc(NC(=O)N2CCSc3ncccc32)cc1)NCc1ccccc1,i,i,i,i,i,nt,nt,nt,nt
Cc1cc(C)c(NC(=O)CN2C(=O)CCSc3ccc(S(=O)(=O)N4CCCC4)cc32)c(C)c1,i,nt,i,i,i,nt,nt,nt,nt
Cc1ccccc1Cn1cc(CCC(=O)NC(C)c2ccccc2)c2ccccc21 (stereo unspecified),i,i,i,i,?,nt,nt,nt,nt
COc1ccc(Cl)cc1NC(=O)c1cc2nc(-c3ccc4c(c3)OCO4)cc(C(F)(F)F)n2n1,i,i,i,i,i,nt,nt,nt,nt
O=C(Cn1nc(-c2ccccc2)c2c(c1=O)CCCC2)Nc1ccc(F)c(Cl)c1,i,?,i,?,i,nt,nt,nt,nt
COc1cccc(CNC(=O)Cn2c(=O)cc(C(F)(F)F)c3c(C)nn(C)c32)c1OC,i,i,i,i,i,nt,nt,nt,nt
O=C1CNC(=S)N1Cc1ccc(F)cc1,i,i,i,i,i,i,nt,nt,nt
N=c1ccn(Cc2ccc(F)cc2)cc1,i,2.31µM,i,i,i,i,?,20.6µM,23.1µM
CCOc1ccccc1CNC(=O)c1c(C)oc2ncnc(N3CCOCC3)c12,i,?,i,i,i,nt,nt,nt,nt
CC[n+]1ccccc1/C=C1\Sc2ccc(C)cc2N1C,i,6.51µM,i,?,i,i,i,i,2.91µM
COc1ccc(Nc2nc(-c3cccs3)nc3ccccc23)cc1S(=O)(=O)N1CCOCC1,i,9.2µM,nt,?,i,i,i,?,?
Cc1nn(S(=O)(=O)c2ccc(C(C)(C)C)cc2)c(C)c1S(=O)(=O)N1CCC(C)CC1,i,nt,i,i,i,nt,nt,nt,nt
CCN(CC)S(=O)(=O)c1cc(NC(=O)c2ccc(-n3cncn3)c([N+](=O)[O-])c2)ccc1C,i,4.11µM,i,?,i,i,i,i,6.51µM
Cc1c(C(=O)N2CCN(Cc3ccc4c(c3)OCO4)CC2)sc2ncnc(N3CCN(c4ccccc4)CC3)c12,i,1.16µM,i,i,i,i,i,i,7.31µM
CCOC(=O)c1cc(C)n(CC2CCC(C(=O)Nc3ccc(Cl)cc3)CC2)c1C (stereo unspecified),i,8.2µM,?,?,i,nt,i,i,13µM
CCOC(=O)c1c(NC(=O)c2cc(=O)c3c(C)cc(C)cc3o2)sc(C)c1C,i,i,i,i,i,nt,nt,nt,nt
S=C(NCc1ccccc1)Nc1cccc2cnccc12,i,2.59µM,i,i,nt,i,i,i,7.31µM
S=C(NCCc1ccccc1)Nc1cccc2cnccc12,i,3.66µM,i,i,nt,i,0.0426µM,i,2.59µM
CCCCNC(=S)Nc1cccc2cnccc12,i,i,i,i,i,i,nt,nt,nt
COc1ccc(OC)c(CNC(=O)c2ccc(C)c(NC(=O)c3nsc4ccccc34)c2)c1,i,nt,i,i,i,nt,nt,nt,nt
Cc1ccccc1OCCn1c(-c2ccc(Cl)cc2)nc2ccccc2c1=O,i,i,i,i,i,nt,nt,nt,nt
CCOC(=O)N1CCN(C(=O)c2ccc(Cn3c(=S)[nH]c4cc5c(cc4c3=O)OCO5)cc2)CC1,i,9.2µM,i,?,i,i,i,i,8.2µM
Cc1c(NC(=O)Nc2ccc(Br)cc2F)sc2nc3n(c(=O)c12)CCC(C)CC3 (stereo unspecified),i,i,i,i,i,nt,nt,nt,nt
O=C(COc1ccc(S(=O)(=O)NC2CCCCC2)cc1)N1CCN(c2cccc(Cl)c2)CC1,i,5.8µM,?,?,i,i,i,i,9.2µM
CCc1nc(N)nc(N)c1-c1ccc(N(C)Cc2ccccc2)c([N+](=O)[O-])c1,i,1.3µM,nt,i,i,i,i,i,1.16µM
SMILES,Nrf2 activator,Nrf2 inh,miR-21 reporter,A549 tox-1,ClpP mod,IL-2 act,FLuc enzyme inh,A549 tox-2,Nrf2 ARE inh
COc1cccc(N2CC(NC(=O)C3CC3)CC2=O)c1 (stereo unspecified),i,nt,i,i,i,nt,nt,nt,nt
Cc1ccc(S(=O)(=O)NCc2ccc(C(=O)N3CCN(c4ccc([N+](=O)[O-])cc4)CC3)cc2)cc1,i,5.17µM,i,?,i,i,i,i,5.8µM
COc1cccc(N2CCN(C(=O)c3c(C)oc4ncnc(N5CCCCC5)c34)CC2)c1,i,i,i,i,i,nt,nt,nt,nt
COc1ccc(-c2nc(CSCC(=O)N3CCN(c4cccc(C)c4C)CC3)c(C)o2)cc1OC,i,nt,i,i,i,nt,nt,nt,nt
COc1ccc(-c2nc(CSCC(=O)N3CCN(c4ccc(OC)cc4)CC3)c(C)o2)cc1,i,4.61µM,i,i,i,nt,i,i,9.2µM
COc1ccc(-c2nc(CSCC(=O)N3CCN(c4cc(Cl)ccc4C)CC3)c(C)o2)cc1,i,7.31µM,?,i,?,nt,?,?,11.6µM
CCOc1ccc(-c2nc(CSCC(=O)N3CCN(c4ccc(F)cc4)CC3)c(C)o2)cc1,i,nt,?,i,i,nt,nt,nt,nt
COc1cc2c(oc(=O)c3cc(C)cc(OC)c32)c2c(C3OC(C)C(O)C(C)(O)C3O)ccc(O)c12 (stereo unspecified),i,1.3µM,nt,5.8µM,i,i,i,?,1.84µM
COc1cccc2cc(C(=O)N3CC(C)OC(C)C3)c(=O)oc12 (stereo unspecified),i,i,i,i,i,i,nt,nt,nt
CC(C)COc1ccccc1C1CC(=O)Nc2cc3c(cc21)OCO3 (stereo unspecified),i,8.2µM,?,i,i,nt,i,?,23.1µM
CCOc1c(OC)cccc1C1CC(=O)Nc2cc3c(cc21)OCCO3 (stereo unspecified),i,i,i,i,i,i,nt,nt,nt
CCCn1cc(S(=O)(=O)c2cc(C)ccc2C)c(=O)c2cc(F)c(N3CCCCCC3)cc21,i,?,i,i,?,nt,nt,nt,nt
COC(=O)C1=C(O)C(C(=O)OC)C(c2ccc(C)cc2)C(C#N)(C#N)C1c1ccc(C)cc1 (stereo unspecified),i,2.91µM,i,nt,i,i,i,?,14.6µM
COC(=O)C1=C(Nc2ccc(C)cc2)C=C(C)C(C(=O)OC)C1c1ccc(OC)cc1 (stereo unspecified),i,i,i,nt,i,i,nt,nt,nt
COc1ccc(CCNc2c(C)c(C)nc3ncnn23)cc1,i,1.03µM,i,?,i,i,i,i,2.06µM
